According to ChEMBL document CHEMBL1127469, “Decapeptide agonists of human C5a: the relationship between conformation and spasmogenic and platelet aggregatory activities” (J Med Chem, 1994):

The compounds below were run on C5a anaphylatoxin chemotactic receptor 1 (Cavia porcellus) (assay: Tested for pharmacological activity against C5a receptor in Guinea pig lung parenchyma).

`CC(C)C[C@H](NC(=O)CNC(=O)[C@H](CCCCN)NC(=O)[C@H](Cc1ccccc1)NC(=O)[C@H](CO)NC(=O)[C@@H](N)Cc1ccc(O)cc1)C(=O)N[C@@H](CC(C)C)C(=O)N[C@@H](CC(C)C)C(=O)NCC(=O)N[C@@H](CCCN=C(N)N)C(=O)O` and `CSCC[C@H](NC(=O)[C@H](CC(=O)O)NC(=O)[C@H](CCCCN)NC(=O)[C@H](Cc1ccccc1)NC(=O)[C@H](CO)NC(=O)[C@@H](N)Cc1ccc(O)cc1)C(=O)N[C@@H](CCC(N)=O)C(=O)N[C@@H](CC(C)C)C(=O)NCC(=O)N[C@@H](CCCN=C(N)N)C(=O)O` are within 0.2 log units of each other in pD2: 4.7 for the first, 4.56 for the second.

With `CSCC[C@H](NC(=O)[C@H](CC(=O)O)NC(=O)[C@H](CCCCN)NC(=O)[C@H](Cc1ccccc1)NC(=O)[C@H](CO)NC(=O)[C@@H](N)Cc1ccc(O)cc1)C(=O)N1CCC[C@H]1C(=O)N[C@@H](CC(C)C)C(=O)NCC(=O)N[C@@H](CCCN=C(N)N)C(=O)O` the pD2 was 5.15.
